{
  "source": "paper PMC11255104",
  "about": "(Food Chemistry: X, 2024)",
  "assay": "Pharmacokinetic study in rats after oral administration of MOL extract",
  "type": "in vivo, Sprague-Dawley rats",
  "conditions": "rat plasma",
  "data": [
    {"substance": "Kaempferol-3-O-rutinoside", "values": [
      {"measurement": "biological / elimination half-life (in words)", "result": "longer biological half-life than other components"}
    ]}
  ]
}
